According to US9403797B2, “5-(pyridin-2-yl-amino)-pyrazine-2-carbonitrile compounds and their therapeutic use” (Cancer Research Technology Limited, priority 2011, dated 2016):
pIC50: −log10 of the molar value.

Chains of the proteins cited; added tags and fusions are not shown. Lines headed by an entry give the natural chain unless they say otherwise; changes in a name come on top.
UniProt O14757: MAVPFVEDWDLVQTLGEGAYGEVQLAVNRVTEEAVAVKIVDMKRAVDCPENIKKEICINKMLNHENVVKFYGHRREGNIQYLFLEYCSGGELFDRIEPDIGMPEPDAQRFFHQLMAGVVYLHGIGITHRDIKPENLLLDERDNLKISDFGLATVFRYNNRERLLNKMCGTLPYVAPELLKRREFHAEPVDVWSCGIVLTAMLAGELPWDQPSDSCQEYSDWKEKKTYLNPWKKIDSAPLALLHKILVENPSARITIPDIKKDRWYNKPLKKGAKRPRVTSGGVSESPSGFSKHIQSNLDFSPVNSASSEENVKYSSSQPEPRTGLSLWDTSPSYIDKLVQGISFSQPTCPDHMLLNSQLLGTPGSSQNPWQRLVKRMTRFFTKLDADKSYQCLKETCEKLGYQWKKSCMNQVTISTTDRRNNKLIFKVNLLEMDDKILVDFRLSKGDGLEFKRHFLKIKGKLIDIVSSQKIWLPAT

Biological target: CHK1 (Homo sapiens (Human), UniProt O14757)
Experiment: Inhibitor potency vs. CHK1 (Assay 1A DELFIA or Assay 1B Caliper format)
Type: biochemical
Protocol: Assay 1A: Determination of Inhibitor Potency vs. CHK1 in DELFIA Assay Format
CHK1 kinase function was measured in a DELFIA® assay in order to monitor phosphorylation of a CDC25C peptide using a specific phospho antibody. […] The reaction mixture was incubated for 30 minutes at room temperature and then stopped by the addition of buffer (125 μL) containing 40 mM EDTA, 0.05% Tween 20, 0.1% BSA in TBS (10× concentrate, Sigma). An aliquot (100 μL) of the stopped reaction mixture was transferred to a black neutravidin-coated plate (Perbio) and incubated for 1 hour on a shaker (Titertek, Flow Laboratories) at room temperature. […] The plates were washed a further four times with wash buffer before the addition of enhancement solution (100 μL/well, PerkinElmer Life Sciences).
Assay 1B: Determination of Inhibitor Potency Vs. CHK1 in Caliper Assay Format
CHK1 kinase activity was measured in a microfluidic assay that monitors the separation of a phosphorylated product from its substrate. […] For each test compound a 50 μM stock concentration in 100% DMSO was used. […] The plate was sealed and centrifuged (1 minutes, 1000 rpm) before incubation for one hour at room temperature. The reaction was stopped by the addition of separation buffer (90 μL). […] IC50 values were calculated in GraphPad Prism5 using a non linear regression fit of the log (inhibitor) vs. response with variable slope equation.

pIC50: > 7.70
SMILES: CNc1cc(Nc2cnc(C#N)c(O[C@@H]3CCNC3)n2)ncc1C(=O)OC [PAPC-B-10, (R)-Methyl 6-((5-cyano-6-(pyrrolidin-3-yloxy)pyrazin-2-yl)amino)-4-(methylamino)nicotinate]
